Data: patent US8211874B2, “Inhibition of thrombin generation” (Galderma Laboratories Inc., priority 2005, dated 2012)

Conditions: in vivo

In the case of tetracycline pyrazole [COL-5], the biodistribution is reported as “only limited biodistribution”.
